From ChEMBL document CHEMBL1138501, “Structure-guided design, synthesis, and evaluation of salicylic acid-based inhibitors targeting a selectivity pocket in the active site of human 20alpha-hydroxysteroid dehydrogenase (AKR1C1)” (J Med Chem, 2009)
The source made the active and inactive calls. No cut-off for these calls is given here.

Columns and labels:
[1] = target: T1, Aldo-keto reductase family 1 member C1 (Homo sapiens, UniProt Q04828)
T1 sequence (Q04828 whole entry): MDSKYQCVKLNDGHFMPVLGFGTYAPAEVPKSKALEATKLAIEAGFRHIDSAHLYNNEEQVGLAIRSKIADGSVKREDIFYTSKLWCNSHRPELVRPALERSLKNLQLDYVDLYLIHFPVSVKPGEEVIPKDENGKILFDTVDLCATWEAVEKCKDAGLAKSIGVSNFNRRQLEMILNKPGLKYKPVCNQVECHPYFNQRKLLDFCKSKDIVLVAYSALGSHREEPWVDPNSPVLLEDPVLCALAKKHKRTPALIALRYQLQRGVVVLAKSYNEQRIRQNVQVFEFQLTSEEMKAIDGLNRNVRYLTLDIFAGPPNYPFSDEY

[2] = target: T1, Aldo-keto reductase family 1 member C1; remark: listed apart in the source
[3] = target: T2, Aldo-keto reductase family 1 member C1 (Homo sapiens) (UniProt Q04828); details: 0.1 uM
T2 sequence (whole entry): T1 sequence (Q04828 whole entry)

In the case of `O=C(O)c1cc(Br)cc(Br)c1O`, the Ki [1] is reported as 0.009 µM, the IC50 [2] is reported as 2.3 µM and the Activity [3] is reported as “Active”.
